Earlier results, collected in patent US20100280046A1, “Methods and Compositions for Treating Prostate Cancer, Benign Prostatic Hypertrophy, Polycystic Ovary Syndrome and Other Conditions” (DIOBEX, INC., priority 2006, published 2010).

Details: human, in vivo; cited from earlier work

CC(=O)N1CCN(c2ccc(OCC3COC(Cn4ccnc4)(c4ccc(Cl)cc4Cl)O3)cc2)CC1 (racemic) [racemic ketoconazole, 1-acetyl-4-[4-[[2-(2,4-dichlorophenyl)-2-[(1H-imidazol-1-yl)-methyl]-1,3-dioxolan-4-yl]methoxy]phenyl]piperazine]
effect on QTc interval: does not increase the QTc interval
